Laboratory results: patent US8071600B2, “Derivatives of 4-piperazin-1-yl-4-benzo[B]thiophene suitable for the treatment of CNS disorders” (Otsuka Pharmaceutical Co., Ltd., priority 2005, dated 2011)

By UniProt entry, the sequences of proteins in these tests, tags left out.
UniProt P61169, whole entry: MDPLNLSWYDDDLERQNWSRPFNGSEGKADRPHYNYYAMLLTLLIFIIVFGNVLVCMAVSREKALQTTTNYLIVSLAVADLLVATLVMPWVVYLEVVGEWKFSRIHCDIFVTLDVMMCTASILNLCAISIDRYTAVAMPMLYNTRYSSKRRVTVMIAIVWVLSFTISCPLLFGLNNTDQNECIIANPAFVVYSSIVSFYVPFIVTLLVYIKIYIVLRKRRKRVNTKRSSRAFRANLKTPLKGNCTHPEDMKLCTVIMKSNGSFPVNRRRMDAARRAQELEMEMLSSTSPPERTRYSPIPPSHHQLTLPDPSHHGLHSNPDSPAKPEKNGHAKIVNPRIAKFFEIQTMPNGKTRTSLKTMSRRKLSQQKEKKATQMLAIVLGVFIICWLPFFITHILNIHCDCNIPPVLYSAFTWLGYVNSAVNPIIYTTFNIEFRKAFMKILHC
UniProt P14842, whole entry: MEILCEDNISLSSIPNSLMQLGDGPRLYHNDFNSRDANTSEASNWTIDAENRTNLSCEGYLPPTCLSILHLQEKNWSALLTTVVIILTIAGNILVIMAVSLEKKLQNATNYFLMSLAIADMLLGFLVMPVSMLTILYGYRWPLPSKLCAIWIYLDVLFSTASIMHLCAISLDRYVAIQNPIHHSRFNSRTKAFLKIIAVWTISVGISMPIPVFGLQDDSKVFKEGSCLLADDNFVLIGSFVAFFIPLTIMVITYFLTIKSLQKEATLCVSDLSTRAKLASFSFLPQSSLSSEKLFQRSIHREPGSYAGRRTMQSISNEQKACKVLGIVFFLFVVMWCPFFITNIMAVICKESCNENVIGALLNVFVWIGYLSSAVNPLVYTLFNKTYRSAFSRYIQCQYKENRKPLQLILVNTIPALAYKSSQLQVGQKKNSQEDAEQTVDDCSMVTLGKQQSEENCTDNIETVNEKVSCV

How the values were obtained:
[1] = molecular target: Dopamine D2 receptor (Rattus norvegicus, UniProt P61169); experiment: Dopamine D2 receptor binding assay ([3H]-raclopride); details: Dopamine D2 receptor binding test, rat corpus striatum membrane, Ki calculated from IC50 by Cheng-Prussoff formula
Description: 1) Dopamine D2 Receptor Binding Assay
The assay was performed according to the method by Kohler et al. (Kohler C, Hall H, Ogren S O and Gawell L, Specific in vitro and in vivo binding of 3H-raclopride. A potent substituted benzamide drug with high affinity for dopamine D-2 receptors in the rat brain. Biochem. Pharmacol., 1985; 34: 2251-2259).
Wistar male rats were decapitated, the brain was retrieved immediately and corpus striatum was taken out. […]
The binding assay was performed using 40 μl of the membrane specimen, 20 μl of [^3H]-raclopride (final concentration 1 to 2 nM), 20 μl of a test drug and 50 mM Tris-hydrochloric acid buffer (containing 120 mM NaCl, 5 mM KCl, 2 mM CaCl2, 1 mM MgCl2, pH 7.4) so that the total amount was 200 μl (final dimethylsulfoxide concentration 1%). […] The filter plate made of glass fiber was washed with 50 mM Tris-hydrochloric acid buffer (pH 7.4), and after dried, a microplate liquid scintillation cocktail was added and the radioactivity was measured with a microplate scintillation counter. Radioactivity in the presence of 10 μM (+)-butaclamol hydrochloride was assumed as nonspecific binding.
(§1) IC50 value was calculated from concentration-dependent reaction using a non-linear analysis program. Ki value was calculated from IC50 value using Cheng-Prussoff formula.

[2] = molecular target: Serotonin 5-HT2A receptor (Rattus norvegicus, UniProt P14842); experiment: Serotonin 5-HT2A receptor binding assay ([3H]-Ketanserin); details: Serotonin 5-HT2A receptor binding test, rat frontal cortex membrane, Ki calculated from IC50 by Cheng-Prussoff formula
Description: 2) Serotonin 5-HT2A Receptor Binding Assay
The assay was performed according to the method by Leysen J E et al. (Leysen J E, Niemegeers C J E, Van Nueten J M and Laduron P M. [3H] Ketanserin (R 41 468), a selective 3H-ligand for serotonin 2 receptor binding sites. Mol. Pharmacol., 1982, 21: 301-314).
Wistar male rats were decapitated, the brain was retrieved immediately and frontal cortex was taken out. It was homogenized in 0.25 M sucrose of a volume 10 times of the weight of the tissue using a Teflon glass homogenizer, and centrifuged at 4° C., 1,000×g for 10 minutes. The obtained supernatant was transferred to another centrifuge tube and suspended in 0.25 M sucrose of a volume 5 times of the weight of the tissue and the precipitate was centrifuged in the above-described condition. […]
The filter plate made of glass fiber was washed with 50 mM Tris-hydrochloric acid buffer (pH 7.4), and after dried, a microplate liquid scintillation cocktail was added and the radioactivity was measured with a microplate scintillation counter. Radioactivity in the presence of 10 μM spiperone was assumed as nonspecific binding.
as §1

Ki [1]: 0.4 nM
Ki [2]: 1.7 nM
SMILES: CN1CCC(c2ccc(OCCCN3CCN(c4cccc5sccc45)CC3)cc2)CC1
